Values of other authors as cited in patent publication US9796687B2, “S-substituted quinazolines and their therapeutic applications for the treatment of diseases mediated by PDE7” (Consejo Superior De Investigaciones Cientificas (CSIC), priority 2016, dated 2017).

By UniProt entry, the sequences of proteins in these tests, tags left out. Where a name states a change or a piece, a line headed by the entry shows the natural chain unless it says otherwise.
UniProt Q12809: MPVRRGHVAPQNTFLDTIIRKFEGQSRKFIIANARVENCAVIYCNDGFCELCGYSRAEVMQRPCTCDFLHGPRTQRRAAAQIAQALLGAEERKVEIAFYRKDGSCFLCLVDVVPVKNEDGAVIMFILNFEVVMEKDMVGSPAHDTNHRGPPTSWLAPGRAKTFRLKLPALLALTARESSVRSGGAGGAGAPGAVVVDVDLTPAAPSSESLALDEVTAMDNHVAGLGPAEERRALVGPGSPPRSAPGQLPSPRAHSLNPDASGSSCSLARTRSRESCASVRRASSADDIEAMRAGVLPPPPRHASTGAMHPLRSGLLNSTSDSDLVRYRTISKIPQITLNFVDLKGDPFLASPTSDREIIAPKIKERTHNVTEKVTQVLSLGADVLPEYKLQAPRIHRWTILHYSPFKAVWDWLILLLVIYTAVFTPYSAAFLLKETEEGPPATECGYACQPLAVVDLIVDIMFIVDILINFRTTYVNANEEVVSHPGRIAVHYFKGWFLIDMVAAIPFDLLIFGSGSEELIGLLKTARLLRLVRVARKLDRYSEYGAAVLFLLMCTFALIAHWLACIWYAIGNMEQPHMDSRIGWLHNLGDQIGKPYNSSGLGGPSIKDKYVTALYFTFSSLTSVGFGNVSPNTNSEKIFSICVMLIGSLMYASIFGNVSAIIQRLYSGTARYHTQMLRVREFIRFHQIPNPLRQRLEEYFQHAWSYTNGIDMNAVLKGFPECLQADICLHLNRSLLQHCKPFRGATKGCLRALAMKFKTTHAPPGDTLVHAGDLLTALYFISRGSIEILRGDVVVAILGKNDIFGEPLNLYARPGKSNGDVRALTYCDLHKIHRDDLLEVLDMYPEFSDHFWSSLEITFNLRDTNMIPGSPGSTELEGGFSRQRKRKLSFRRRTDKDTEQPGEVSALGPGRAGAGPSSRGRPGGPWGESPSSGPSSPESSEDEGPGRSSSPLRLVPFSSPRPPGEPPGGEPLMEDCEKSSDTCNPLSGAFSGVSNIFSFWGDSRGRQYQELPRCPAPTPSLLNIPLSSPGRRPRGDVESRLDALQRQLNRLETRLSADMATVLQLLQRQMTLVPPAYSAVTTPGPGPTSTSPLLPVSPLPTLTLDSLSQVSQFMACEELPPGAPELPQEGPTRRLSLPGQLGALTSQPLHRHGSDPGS

Target: hERG channel (Homo sapiens (Human), UniProt Q12809)
Details: read-out: hERG IC50 of positive controls; cited from earlier work

In the case of CC(C)COCC(CN(Cc1ccccc1)c1ccccc1)N1CCCC1 (stereo not shown) [bepridil], the IC50 is listed as 1400 nM.
